From PubChem BioAssay AID1049 (The Scripps Research Institute Molecular Screening Center, 2008)
Only a part is listed here, and it is no random draw. Activity calls are given as the source filed them. No stated cut-off is given here; in the data, active means TR-FRET ratio above about 2000; inactive means the rest.

assay: detection-format interference in TR-FRET ratio – biochemical, artefact control for PPARgamma SRC-2 agonist project, primary screen (AID 1049); conditions: TR-FRET artefact counter-screen; at 8 µM; hits give high values

Compound | TR-FRET ratio
CN(C)c1ccc2nc3ccc(=[N+](C)C)cc-3sc2c1 | active: 7110
